Screening data (PubChem)
GIV Gai3 FP – blocks GIV peptide binding to rat Galpha-i3; P08753; Galpha-i3/FITC-GIV peptide fluorescence polarization, 90 min; stronger effect = lower value; scaled: aluminum fluoride 0%, vehicle 100%; percent of control (FP), % (no concentration beside the values); 210,000 tested, 0.42% active; AID 1224905;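 active = replicate mean at 85% of control or lower, very high polarization wells dropped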;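 also: wells of about 15 µL received 100 nL stock; the first replicate is given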
An asterisk follows results filed as active. The sample as a whole holds a higher share of hits than the screen did.

GIV Gai3 FP	structure
101.3	Cc1cc(C)c(S(=O)(=O)N2CCCC2c2nc(-c3ccccc3)no2)c(C)c1 (configuration not stated)
-94.8*	N#CC1=C(N)SC(N)=C(C#N)C1CCC1CCCCC1
101.0	Nc1nnc(CCC2CCCCC2)s1
107.9	Cc1ccnc(NC(c2cccnc2)c2c(NC(=O)c3ccccc3)sc(C)c2C)c1 (configuration not stated)
103.0	CC1(C(=O)NC2CCCCC2)Cn2c(cc3occc32)C(=O)N1CCN1CCCC1 (configuration not stated)
95.8	O=C1N(c2ccc(-c3ccccc3)cc2)C(c2ccc(F)cc2)N2CCCN12 (configuration not stated)
103.7	CCCCCCCn1c(CN2CCOCC2)nc2ccccc21
101.3	Cc1csc(-n2[nH]c(C)c(CCC(=O)Nc3c(C)cccc3C)c2=O)n1
112.4	CC1(C)CC(=O)C2=C(C1)OC(N)=C(C#N)C2c1cccc(OCc2ccccc2)c1 (configuration not stated)
100.6	CCOC(=O)C1=C(O)c2ccccc2C1=O
123.4	CCOC(=O)c1ccc2nc3c(nc2c1)C(=O)c1ccccc1C3=O
-41.9*	CCOC(=O)c1c2c(n3ccccc13)C(=O)c1ccccc1C2=O
112.5	Cc1[nH]c(C)c(S(=O)(=O)N2CCCCC2)c1-c1nc(C2CC2)no1
106.6	COC(=O)c1ccccc1NC(=O)c1cccc(CSc2nnc(C)s2)c1
105.9	CCCC(NCc1ccc2c(c1)n(C)c(=O)n2C)c1ccccc1 (configuration not stated)
100.5	CCCN1CCN(c2cc(C(=O)O)c3cc(NS(=O)(=O)c4ccc(F)cc4)ccc3n2)CC1
99.8	O=C1CC(C(=O)N2CCc3ccccc32)CN1CCc1c[nH]c2ccc(F)cc12 (configuration not stated)
-3.2*	CC(C)Oc1ccc(C(=O)Nc2sc3c(c2-c2nc4ccccc4s2)CCN(C)C3)cc1
123.3	CCOC(=O)c1c(NC(=O)c2ccccc2)sc2c1CCN(C(C)C)C2
-3.2*	CCOc1ccc(C(=O)Nc2sc3c(c2-c2nc4ccccc4s2)CCN(CC)C3)cc1
108.0	CCN(CC)S(=O)(=O)c1ccc(C(=O)Nc2sc3c(c2-c2nc4ccccc4s2)CCCC3)cc1
109.0	COC(=O)c1ccc(C(=O)Nc2sc3c(c2-c2nc4ccccc4s2)CCC(C)C3)cc1 (configuration not stated)
106.7	COc1ccc(C(=O)Nc2sc3c(c2-c2nc4ccccc4s2)CCCC3)cc1OC
188.4	CN1CCc2c(sc(NC(=O)CSc3ccccc3)c2-c2nc3ccccc3s2)C1

Compounds listed so far containing fluorine (3):
GIV Gai3 FP	structure
95.8	O=C1N(c2ccc(-c3ccccc3)cc2)C(c2ccc(F)cc2)N2CCCN12 (configuration not stated)
100.5	CCCN1CCN(c2cc(C(=O)O)c3cc(NS(=O)(=O)c4ccc(F)cc4)ccc3n2)CC1
99.8	O=C1CC(C(=O)N2CCc3ccccc32)CN1CCc1c[nH]c2ccc(F)cc12 (configuration not stated)

Next section
GIV Gai3 FP	structure
-3.2*	CC(=O)Nc1sc2c(c1-c1nc3ccccc3s1)CCN(Cc1ccccc1)C2
-26.3*	COC(=O)c1c(NC(=O)c2ccc(Br)cc2)sc2c1CCN(C(C)C)C2
121.3	CCN1CCc2c(sc(NC(=O)CCc3ccccc3)c2-c2nc3ccccc3s2)C1
185.8	CCOC(=O)c1c(NC(=O)c2ccc(Cl)cc2)sc2c1CCN(C(C)C)C2
104.4	CCC(=O)Nc1sc2c(c1-c1nc3ccccc3s1)CCN(C(C)=O)C2
104.6	O=C(NCc1n[nH]c(=O)c2ccccc12)C(=O)NCC1CCCO1 (configuration not stated)
99.8	O=C(Nc1cccnc1)c1cc(-c2ccc(F)cc2)no1
101.1	O=C(Nc1ccccc1C(=O)N1CCN(c2ccccc2)CC1)c1cccc(S(=O)(=O)N2CCCCCC2)c1
106.4	COc1cc(C(=O)c2cc(Cl)ccc2N)cc(OC)c1OC
96.5	COc1ccc(C(=O)Nc2cc(-c3nc4cc(C(C)C)ccc4o3)ccc2Cl)cc1[N+](=O)[O-]
105.3	Cc1nccc2[nH]c(=O)c(C(=O)NCCC(C)C)cc12
111.4	CCN1C(=O)COc2ccccc2C1=O
102.0	c1ccc(CSc2nccc(-c3cccnc3)n2)cc1
111.3	COc1ccc(CNc2ncnc3scc(-c4ccc(C)cc4)c23)cc1
104.6	COc1cc(-c2[nH]nc3c2C(c2ccc4c(c2)OCO4)C(C#N)=C(N)O3)cc(OC)c1OC (configuration not stated)
-3.2*	CC(C)N1CCc2c(sc(NC(=O)c3ccc(F)cc3)c2-c2nc3ccccc3s2)C1
111.6	CC(=O)N1CCc2c(sc(NC(=O)c3ccc4c(c3)OCCO4)c2-c2nc3ccccc3s2)C1
107.6	CC(=O)N1CCc2c(sc(NC(=O)c3ccc(Br)s3)c2-c2nc3ccccc3s2)C1
96.7	CCSc1nc2n(n1)C(c1ccc(NC(C)=O)cc1)C(C(=O)Nc1ccccc1C)=C(C)N2 (configuration not stated)
109.5	COC(=O)c1cc(C(=O)OC)cc(N2C(=O)CSC2c2c(F)cccc2Cl)c1 (configuration not stated)
96.7	COc1ccc(N=C(NC#N)Oc2ccccc2)cc1
104.2	Cc1ccc(NC(=O)c2cc3ccccc3oc2=N)cc1
-62.5*	N=c1oc2c3c4c(cc2cc1C(=O)Nc1ccccc1)CCCN4CCC3
-13.6*	N#Cc1ccc(NC(=O)c2cc3cc4c5c(c3oc2=N)CCCN5CCC4)cc1
106.9	CCOC(=O)c1ccc(NC(=O)c2cnc(N3CCCC3)nc2C)cc1
100.0	CCOC(=O)c1ccc(NC(=O)c2cc3cc(Cl)ccc3oc2=N)cc1
-13.5*	CCOC(=O)c1ccc(NC(=O)c2cc3cc4c5c(c3oc2=N)CCCN5CCC4)cc1
104.6	CCC(=O)N1CCCc2cc(S(=O)(=O)N3CCC(C(=O)Nc4ccc(C#N)cc4)CC3)ccc21
107.7	N=c1oc2ccccc2cc1C(=O)Nc1ccc(F)cc1
94.4	Cc1ccc(NC(=O)c2ccc(C#N)cc2)cc1
104.3	Cc1ccccc1OC1C(=O)N(c2cccc(Cl)c2)C1c1ccc2c(c1)OCO2 (configuration not stated)
102.4	CN(C(=O)c1nc(-c2ccc(Cl)cc2)n2c1CCCCC2)C1CCCCC1
102.5	CCN1CCN(c2cc(C(=O)O)c3cc(NS(=O)(=O)c4ccc(C(C)C)cc4)ccc3n2)CC1
100.2	CCOc1cc2[nH]c(=O)n(CCC(=O)NC3CCCC(C)C3C)c(=O)c2cc1OCC (configuration not stated)
102.9	CCn1cc2nc(SCc3cc(F)cc(F)c3)n(Cc3ccccc3F)c(=O)c2n1
-72.7*	CN(C)/C=C/C=C1\CCc2ccccc2C1=O
154.6	CN(C)/C=C/C=C1\CC/C(=C\C=C\N(C)C)C1=O
104.1	CN(C)/C=C1\CCCc2ccccc2C1=O
103.5	N#Cc1c2ccccc2c(C#N)c2ccccc12
106.9	CCOC(=O)C(CC)C(N)Cc1ccc(OC)c(OC)c1 (configuration not stated)
289.5	N#C/C(=C\c1ccc(-c2ccccc2C(=O)O)o1)c1nc2ccccc2[nH]1
-6.1*	N#C/C(=C\c1ccc(-c2ccc(F)cc2F)o1)c1nc2ccccc2[nH]1
119.5	N#C/C(=C\c1ccc(Cl)cc1)c1nc2ccccc2[nH]1
107.7	N#CC1=C(N)OC(c2ccccc2)=C(C(=O)c2ccccc2)C1c1ccccc1Cl (configuration not stated)
105.5	CCc1nc2c(C)nc(Nc3ccc(OC)c(Cl)c3)nc2n1-c1ccc(OC)c(Cl)c1
-18.2*	N#C/C(=C\c1[nH]c2ccccc2c1O)C(=N)N1CCOCC1
101.5	N#CC(C#N)=Cc1cn(CC(=O)N2CCOCC2)c2ccccc12
259.0	COc1ccc(N=C(N)/C(C#N)=C/c2[nH]c3ccccc3c2O)cc1
112.0	Cc1ccc(Cl)cc1NCc1cc(=O)n2[nH]c(-c3ccc(C(C)(C)C)cc3)nc2n1
105.0	COC(=O)CSc1nc(-c2ccccc2)nc2c1Cc1cccc(OC)c1O2

Three structures from above, arranged by heavy-atom count, smallest number first.
GIV Gai3 FP	structure
104.1	CN(C)/C=C1\CCCc2ccccc2C1=O
154.6	CN(C)/C=C/C=C1\CC/C(=C\C=C\N(C)C)C1=O
-6.1*	N#C/C(=C\c1ccc(-c2ccc(F)cc2F)o1)c1nc2ccccc2[nH]1
